# Values quoted from earlier work as cited in article PMC3594138 (Bioorganic & medicinal chemistry letters, 2013).
# Tested on: isolated rat heart
# Conditions: uptake-2 blocked pharmacologically; cited from earlier work
substance,measurement,value
[^11C]-(−)-m-hydroxyephedrine [[^11C]HED],Major Clearance T1/2,1.1 ± 0.3 h
